{"source": "patent US4801596A", "about": "“Nitroxy amino propanols for treating heart and circulatory diseases” (Boehringer Mannheim GmbH, priority 1984, dated 1989)", "system": "rat livers", "assay": "denitration rate in re-perfused rat livers (nitrate-like action)", "conditions": "rat liver re-perfused 4 min, equimolar 5×10^-5 M/l; freed NO2 determined in the perfusate; high values = fast denitration", "data": [{"smiles": "O=[N+]([O-])O[C@H]1CO[C@H]2[C@@H]1OC[C@H]2O[N+](=O)[O-]", "values": [{"measurement": "Vrel (denitration rate in relation to isosorbide-5-mononitrate)", "result": 17.5}]}]}
